Test results taken from BindingDB's records for 12930147, “Synthesis, biological evaluation, and receptor docking simulations of 2-[(acylamino)ethyl]-1,4-benzodiazepines as kappa-opioid receptor agonists endowed with antinociceptive and antiamnesic activity” (2003).

By UniProt entry, the sequences of proteins in these tests, tags left out.
UniProt P41143, whole entry, looked up: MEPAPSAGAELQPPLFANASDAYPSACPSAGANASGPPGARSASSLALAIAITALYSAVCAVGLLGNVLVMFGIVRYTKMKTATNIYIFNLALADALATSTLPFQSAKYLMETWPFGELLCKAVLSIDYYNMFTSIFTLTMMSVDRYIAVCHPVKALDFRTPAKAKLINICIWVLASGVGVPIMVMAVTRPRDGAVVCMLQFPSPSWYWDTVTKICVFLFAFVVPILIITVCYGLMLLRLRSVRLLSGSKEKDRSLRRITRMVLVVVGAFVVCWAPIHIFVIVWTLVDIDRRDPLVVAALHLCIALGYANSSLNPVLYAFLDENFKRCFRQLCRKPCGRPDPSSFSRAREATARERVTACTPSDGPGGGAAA

Target: Delta-type opioid receptor (Homo sapiens, UniProt P41143)

## CN(C(=O)Cc1ccccc1)[C@H]1C[C@@]2(CCCO2)CC[C@@H]1N1CCCC1
  Ki: > 10 µM
